One test relates to HLA-A2. Type of test: binding, Human.
Details: not given
In the case of `CC[C@H](C)[C@H](NC(=O)CNC(=O)[C@H](Cc1c[nH]cn1)NC(=O)[C@H](CCC(=O)O)NC(=O)[C@@H](NC(=O)[C@@H]1CCCN1C(=O)[C@H](Cc1ccc(O)cc1)NC(=O)[C@H](CCCCN)NC(=O)[C@H](CC(C)C)NC(=O)[C@@H](N)[C@@H](C)O)[C@@H](C)CC)C(=O)O` [compound 6], the Alleles bound stood at 4.
Same read-out and setting: under KLRNWQWWRL stands 2; under `CC(C)C[C@H](NC(=O)[C@H](CC(C)C)NC(=O)[C@H](CCCCN)NC(=O)[C@H](CCCCN)NC(=O)[C@H](CCC(=O)O)NC(=O)[C@H](CCCCN)NC(=O)[C@H](C)NC(=O)[C@H](CC(C)C)NC(=O)[C@@H](N)CCCCN)C(=O)O` [compound 138], 1.
For `CC(C)C[C@H](NC(=O)[C@H](C)NC(=O)[C@H](CC(=O)O)NC(=O)[C@@H](NC(=O)[C@H](CCC(=O)O)NC(=O)[C@H](CS)NC(=O)[C@@H](NC(=O)[C@H](CC(C)C)NC(=O)[C@@H](N)CO)[C@@H](C)O)C(C)C)C(=O)O` [compound 207], the Alleles bound is listed as 3.
The same measure, in the same setting: next, `CC[C@H](C)[C@H](NC(=O)[C@H](CCC(N)=O)NC(=O)[C@H](CC(=O)O)NC(=O)[C@H](CCCCN)NC(=O)[C@H](CC(C)C)NC(=O)[C@H](CC(=O)O)NC(=O)[C@H](CCC(=O)O)NC(=O)[C@H](CC(C)C)NC(=O)[C@@H](N)CC(=O)O)C(=O)O` [compound 52]: 0.

Staying with this test, now noted: Table 9, peptides derived from not fragmented proteins; number of the five HLA-A2 alleles bound.
`CC(C)C[C@H](NC(=O)[C@H](C)NC(=O)[C@H](CCCNC(=N)N)NC(=O)[C@H](CC(C)C)NC(=O)CNC(=O)[C@H](Cc1c[nH]cn1)NC(=O)[C@H](CCCCN)NC(=O)[C@@H](NC(=O)[C@H](CC(C)C)NC(=O)[C@@H](N)CCC(=O)O)C(C)C)C(=O)O` [compound 245]: the Alleles bound turned out to be 3.
On the same count and under the same terms, next, `CC[C@H](C)[C@H](NC(=O)[C@H](CC(N)=O)NC(=O)[C@H](CCCCN)NC(=O)CNC(=O)[C@H](CC(N)=O)NC(=O)[C@H](CC(C)C)NC(=O)[C@@H](N)CCC(=O)O)C(=O)N[C@@H](CCC(=O)O)C(=O)N[C@@H](CC(=O)O)C(=O)N[C@H](C(=O)O)C(C)C` [compound 243]: 3; `CC(C)C[C@H](NC(=O)CN)C(=O)N[C@@H](CCCCN)C(=O)N[C@@H](CO)C(=O)N[C@@H](CCCCN)C(=O)N[C@H](C(=O)N[C@@H](Cc1c[nH]cn1)C(=O)N[C@@H](C)C(=O)N[C@H](C(=O)O)C(C)C)[C@@H](C)O` [compound 236]: 0; `CSCC[C@H](NC(=O)[C@@H](N)Cc1ccccc1)C(=O)N[C@@H](CCC(=O)O)C(=O)N[C@@H](CS)C(=O)N[C@@H](CC(N)=O)C(=O)N[C@@H](CC(C)C)C(=O)N[C@@H](CC(N)=O)C(=O)N[C@@H](CCC(=O)O)C(=O)N[C@@H](CC(C)C)C(=O)N[C@H](C(=O)O)C(C)C` [compound 238]: 2.

The same test, now with this note: Table 11, peptides derived from apoptotic cell-associated proteins, pools 1-4; number of the five HLA-A2 alleles bound.
`CC[C@H](C)[C@H](NC(=O)[C@H](CC(C)C)NC(=O)[C@@H](N)C(C)C)C(=O)NCC(=O)NCC(=O)N[C@@H](CCCCN)C(=O)N1CCC[C@H]1C(=O)N[C@@H](CC(=O)O)C(=O)N[C@@H](CCCNC(=N)N)C(=O)N[C@H](C(=O)O)C(C)C` gave an Alleles bound of 3.
The molecule `CC(C)C[C@H](NC(=O)[C@H](C)N)C(=O)N[C@@H](CCCNC(=N)N)C(=O)N[C@H](C(=O)N[C@@H](CC(=O)O)C(=O)N[C@@H](Cc1ccc(O)cc1)C(=O)N[C@@H](CC(N)=O)C(=O)N[C@@H](C)C(=O)N[C@@H](CO)C(=O)N[C@H](C(=O)O)C(C)C)[C@@H](C)O` gave an Alleles bound of 4.
Molecule `CC[C@H](C)[C@H](NC(=O)[C@H](Cc1ccccc1)NC(=O)[C@H](CCSC)NC(=O)[C@@H](NC(=O)[C@H](Cc1c[nH]cn1)NC(=O)[C@H](CC(N)=O)NC(=O)[C@H](Cc1ccccc1)NC(=O)[C@H](CC(C)C)NC(=O)[C@@H](N)CCC(N)=O)[C@@H](C)O)C(=O)O` showed an Alleles bound of 5.

Still in this test, the particulars now being: Table 12, peptides derived from apoptotic cell-associated proteins, pools 5-6; number of the five HLA-A2 alleles bound.
`CSCC[C@H](NC(=O)[C@H](CC(C)C)NC(=O)[C@@H](N)CCC(N)=O)C(=O)N[C@@H](C)C(=O)N[C@@H](CCC(=O)O)C(=O)N[C@@H](CCCCN)C(=O)N[C@@H](CC(C)C)C(=O)N[C@@H](CCC(N)=O)C(=O)N[C@@H](CC(C)C)C(=O)O`: the Alleles bound is reported as 3.
Still for that read-out and setting: next, `CC(C)C[C@H](NC(=O)[C@H](Cc1cnc[nH]1)NC(=O)[C@H](CCC(=O)O)NC(=O)CNC(=O)[C@H](C)NC(=O)CNC(=O)[C@H](CO)NC(=O)[C@H](CC(C)C)NC(=O)[C@H](CC(C)C)NC(=O)[C@@H](N)Cc1ccc(O)cc1)C(=O)O`: 4.
Same read-out and setting: under `CC[C@H](C)[C@H](NC(=O)[C@@H](NC(=O)[C@@H](NC(=O)[C@H](Cc1c[nH]cn1)NC(=O)CNC(=O)[C@H](CC(N)=O)NC(=O)[C@H](CO)NC(=O)[C@H](CC(C)C)NC(=O)[C@@H](N)Cc1ccccc1)C(C)C)[C@@H](C)O)C(=O)O` stands 4.

Still in this test, the particulars now being: number of the five alleles A*0201, A*0202, A*0203, A*0206, A*6802 bound.
On to `CC[C@H](C)[C@H](NC(=O)[C@H](CC(C)C)NC(=O)[C@@H](N)C(C)C)C(=O)NCC(=O)NCC(=O)N[C@@H](CCCCN)C(=O)N1CCC[C@H]1C(=O)N[C@@H](CC(=O)O)C(=O)N[C@@H](CCCNC(=N)N)C(=O)N[C@H](C(=O)O)C(C)C` [compound 18], for which the Alleles bound turned out to be 3.
Same read-out and setting: under `CSCC[C@H](NC(=O)[C@@H](N)CCC(=O)O)C(=O)N[C@@H](CCCNC(=N)N)C(=O)N[C@@H](CCC(=O)O)C(=O)N[C@@H](CCC(N)=O)C(=O)N[C@@H](Cc1c[nH]cn1)C(=O)N[C@@H](CC(=O)O)C(=O)N[C@@H](C)C(=O)N[C@@H](CCC(N)=O)C(=O)N[C@H](C(=O)O)C(C)C` [compound 54] stands 0; under `CC(C)C[C@H](NC(=O)[C@H](CCC(N)=O)NC(=O)[C@H](CCCCN)NC(=O)[C@H](CCCCN)NC(=O)[C@H](C)NC(=O)[C@H](C)NC(=O)[C@H](C)NC(=O)[C@H](CC(C)C)NC(=O)[C@@H](N)CO)C(=O)O` [compound 46], 1; under `CC[C@H](C)[C@H](NC(=O)[C@@H](NC(=O)[C@H](CCCCN)NC(=O)[C@H](CCC(=O)O)NC(=O)[C@H](CCC(=O)O)NC(=O)[C@H](C)NC(=O)[C@H](CC(C)C)NC(=O)[C@H](CC(C)C)NC(=O)[C@@H](N)CCC(N)=O)[C@@H](C)O)C(=O)O` [compound 171], 0.
`CC(C)C[C@H](NC(=O)[C@@H](N)CC(C)C)C(=O)N[C@@H](Cc1c[nH]cn1)C(=O)N[C@@H](CCC(N)=O)C(=O)N[C@@H](CO)C(=O)N[C@@H](CO)C(=O)N[C@@H](CC(=O)O)C(=O)N[C@@H](CCCCN)C(=O)N[C@@H](Cc1ccccc1)C(=O)N[C@H](C(=O)O)C(C)C` [compound 125] had an Alleles bound of 2.
In the case of `CC(C)C[C@H](NC(=O)[C@H](CCC(=O)O)NC(=O)[C@@H](NC(=O)[C@H](CCCCN)NC(=O)[C@H](CC(C)C)NC(=O)[C@H](C)NC(=O)[C@H](CCC(=O)O)NC(=O)[C@H](CC(C)C)NC(=O)[C@@H](N)CCC(=O)O)[C@@H](C)O)C(=O)O` [compound 168], the Alleles bound worked out at 0.
For `CC[C@H](C)[C@H](NC(=O)[C@H](CCC(=O)O)NC(=O)[C@H](CCC(=O)O)NC(=O)[C@H](CO)NC(=O)[C@H](Cc1ccc(O)cc1)NC(=O)[C@@H](NC(=O)[C@@H]1CCCN1C(=O)[C@H](CC(C)C)NC(=O)[C@@H](N)CC(N)=O)[C@@H](C)CC)C(=O)O` [compound 61], the Alleles bound amounted to 5.
In turn, `CC[C@H](C)[C@H](NC(=O)CNC(=O)CNC(=O)[C@H](C)NC(=O)[C@@H](NC(=O)[C@@H](N)CO)[C@@H](C)CC)C(=O)N[C@H](C(=O)NCC(=O)N[C@H](C(=O)O)C(C)C)[C@@H](C)CC` [compound 14] showed an Alleles bound of 5.
On the same count and under the same terms, next, `CC(C)C[C@H](NC(=O)[C@H](CC(N)=O)NC(=O)[C@H](CO)NC(=O)[C@H](CC(C)C)NC(=O)[C@H](CCC(N)=O)NC(=O)[C@H](CO)NC(=O)[C@H](CO)NC(=O)[C@H](CC(C)C)NC(=O)[C@@H](N)CO)C(=O)O` [compound 29]: 4; `CC[C@H](C)[C@H](NC(=O)[C@H](CCSC)NC(=O)[C@H](CCC(=O)O)NC(=O)[C@H](C)NC(=O)[C@H](CCC(=O)O)NC(=O)[C@H](CCSC)NC(=O)[C@@H](N)CO)C(=O)N[C@@H](CCC(N)=O)C(=O)N[C@@H](CC(C)C)C(=O)O` [compound 119]: 2; `CC(C)C[C@H](NC(=O)[C@H](CC(=O)O)NC(=O)[C@@H](NC(=O)[C@H](CO)NC(=O)[C@H](CC(=O)O)NC(=O)CNC(=O)[C@H](CCC(=O)O)NC(=O)[C@H](CC(C)C)NC(=O)[C@@H](N)CCCCN)[C@@H](C)O)C(=O)O` [compound 140]: 1.
The molecule `CC[C@H](C)[C@H](NC(=O)[C@H](CCC(N)=O)NC(=O)[C@H](CC(=O)O)NC(=O)[C@H](CCCCN)NC(=O)[C@H](CC(C)C)NC(=O)[C@@H](N)CC(=O)O)C(=O)N[C@@H](C)C(=O)N[C@@H](CCC(N)=O)C(=O)N[C@@H](CC(C)C)C(=O)O` [compound 45] showed an Alleles bound of 1.

Staying with this test, now noted: number of the five alleles A*0201, A*0202, A*0203, A*0206, A*6802 bound; Table 13.
As to `CSCC[C@H](NC(=O)[C@@H](N)Cc1ccccc1)C(=O)N[C@@H](CCC(=O)O)C(=O)N[C@@H](CS)C(=O)N[C@@H](CC(N)=O)C(=O)N[C@@H](CC(C)C)C(=O)N[C@@H](CC(N)=O)C(=O)N[C@@H](CCC(=O)O)C(=O)N[C@@H](CC(C)C)C(=O)N[C@H](C(=O)O)C(C)C`, the Alleles bound is 2.
Consider `CC[C@H](C)[C@H](NC(=O)[C@H](CC(N)=O)NC(=O)[C@H](CCCCN)NC(=O)CNC(=O)[C@H](CC(N)=O)NC(=O)[C@H](CC(C)C)NC(=O)[C@@H](N)CCC(=O)O)C(=O)N[C@@H](CCC(=O)O)C(=O)N[C@@H](CC(=O)O)C(=O)N[C@H](C(=O)O)C(C)C`, for which the Alleles bound was determined as 3.
Same read-out and setting: next, `CC[C@H](C)[C@H](NC(=O)[C@H](CCC(N)=O)NC(=O)[C@@H](NC(=O)[C@H](CCCCN)NC(=O)[C@H](CO)NC(=O)CNC(=O)[C@@H](NC(=O)[C@H](CC(C)C)NC(=O)[C@@H](N)CO)[C@@H](C)CC)[C@@H](C)O)C(=O)O`: 0.
For the molecule `CC(C)C[C@H](NC(=O)CNC(=O)[C@H](Cc1c[nH]cn1)NC(=O)[C@H](CCCCN)NC(=O)[C@@H](NC(=O)[C@H](CC(C)C)NC(=O)[C@H](CCC(=O)O)NC(=O)[C@H](CC(N)=O)NC(=O)[C@H](CC(C)C)NC(=O)[C@@H](N)CC(N)=O)C(C)C)C(=O)O`, the Alleles bound is reported as 3.
